Consider one compound from patent US20260200947A1, “FUSED CYCLIC COMPOUNDS AND USE THEREOF” (Jacobio Pharmaceuticals Co., Ltd., priority 2022, published 2026).

Assay [1] has as its system AsPC-1 cells (K-Ras G12D).
The test system of assay [2] is Capan-2 cells (K-Ras G12V).
The subject of assay [3] is AGS cells (K-Ras G12D).
Assay [4] relates to AGS cells (K-Ras G12D). The source holds these as a separate data set.

Like-named read-outs stand apart in the source and are kept apart here.

`C#Cc1c(F)ccc2cc(N)cc(-c3nc4c5c(nc(OC[C@@]67CCCN6C[C@H](F)C7)nc5c3F)N3CC(=O)COC[C@H]3N4C)c12` [Compound 155B]: the IC50 in assay [1] stood at 38.4 nM; in assay [2], 4.72 nM; in the assay on SW620 cells (K-Ras G12V), 16.5 nM; with AGS cells (K-Ras G12D) [3], 7.63 nM; in the assay with AGS cells (K-Ras G12D) [4], 4.62 nM.
